In patent US7605156B2 (dated 2009):
pIC50: −log10 of the molar value. Like-named read-outs stand apart in the source and are kept apart here.

Molecular target: T1, cPLA2 (Homo sapiens, UniProt P47712)
T1 sequence (P47712 1-749): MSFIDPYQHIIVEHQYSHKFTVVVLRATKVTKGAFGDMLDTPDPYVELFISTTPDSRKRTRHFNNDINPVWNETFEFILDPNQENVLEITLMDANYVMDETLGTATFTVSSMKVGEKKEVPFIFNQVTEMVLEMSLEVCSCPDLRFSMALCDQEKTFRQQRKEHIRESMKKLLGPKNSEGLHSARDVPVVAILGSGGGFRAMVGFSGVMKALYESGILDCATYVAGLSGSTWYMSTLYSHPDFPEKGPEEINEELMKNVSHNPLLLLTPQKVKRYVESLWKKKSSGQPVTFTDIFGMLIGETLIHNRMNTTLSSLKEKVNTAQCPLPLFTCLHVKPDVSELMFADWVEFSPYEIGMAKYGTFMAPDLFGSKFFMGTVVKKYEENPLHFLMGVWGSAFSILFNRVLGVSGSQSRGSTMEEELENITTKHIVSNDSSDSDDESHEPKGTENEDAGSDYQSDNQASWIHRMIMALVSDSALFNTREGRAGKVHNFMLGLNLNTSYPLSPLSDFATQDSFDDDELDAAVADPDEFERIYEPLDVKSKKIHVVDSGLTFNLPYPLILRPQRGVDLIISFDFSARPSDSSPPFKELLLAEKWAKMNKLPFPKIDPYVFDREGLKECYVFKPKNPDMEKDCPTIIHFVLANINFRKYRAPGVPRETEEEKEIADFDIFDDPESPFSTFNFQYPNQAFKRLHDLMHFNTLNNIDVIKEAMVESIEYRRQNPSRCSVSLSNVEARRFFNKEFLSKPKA
Assay: Coumarine assay (hydrolysis of 7-hydroxycoumarinyl 6-heptenoate)
Format: biochemical
Settings: 60 μM 7-hydroxycoumarinyl 6-heptenoate, pH 7.5; for IC50: Coumarin IC50 (uM)

Row | Molecule | IC50 [µM] | pIC50 (read-out: Coumarin IC50)
1 | CC(=O)N1CCN(CCS(=O)(=O)NCCc2c(CCOc3ccc(C(=O)O)cc3)c3cc(Cl)ccc3n2C(c2ccccc2)c2ccccc2)CC1 [Example 242, 4-[2-(2-{2-[2-(4-Acetyl-piperazin-1-yl)-ethanesulfonylamino]-ethyl}-1-benzhydryl-5-chloro-1H-indol-3-yl)-ethoxy]-benzoic acid] | 1.3 | 
2 | CC1CN(CCS(=O)(=O)NCCc2c(CCOc3ccc(C(=O)O)cc3)c3cc(Cl)ccc3n2C(c2ccccc2)c2ccccc2)CC(C)N1 (stereo not shown) [Example 243, 4-[2-(1-Benzhydryl-5-chloro-2-{2-[2-(3,5-dimethyl-piperazin-1-yl)-ethanesulfonylamino]-ethyl}-1H-indol-3-yl)-ethoxy]-benzoic acid] | 0.75 | 
3 | 4-(2-{1-benzhydryl-5-chloro-2-[2-(2-methoxy-phenyl-sulfanylmethanesulfonylamino)-ethyl]-1H-indol-3-yl}-ethoxy)-benzoic acid [Example 83] |  | 6.35
4 | CC1C(=O)NCCN1CCS(=O)(=O)NCCc1c(CCOc2ccc(C(=O)O)cc2)c2cc(Cl)ccc2n1C(c1ccccc1)c1ccccc1 (stereo not shown) [Example 253, 4-(2-{1-benzhydryl-5-chloro-2-[2-({[2-(2-methyl-3-oxopiperazin-1-yl)ethyl]sulfonyl}amino)ethyl]-1H-indol-3-yl}ethoxy)benzoic acid] | 0.75 | 
